Compound activity (PubChem BioAssay)
In the library only some 3.7% were active in any assay of this set; here they are far more common.
ClpP mod: qHTS Assay for Activators of ClpP | purified B. subtilis ClpP, FRET peptide cleavage, 20 min | Potency, µM (top dose mostly 57.5 µM), inactives show at the top dose activity change, negative = active | 1.9% of 340,000 active | AID 651965, 2013; active = well fitted falling curve with a large enough effect; inconclusive = small, poorly fitted or top-dose-only effect; inactive = no such curve, though single readings can be large or run the other way; note: potency is the fitted concentration of half-maximal effect; the source files actives as falling curves though it sought activators and does not explain the sign; nearly all actives have a fitted effect of over 65% in size
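ClpP 10 microg/mL final, pH 8 Tris/KCl buffer with BSA, glycerol, Tween-20; compound pinned in; FRET-FV substrate; RT 20 min; Ex320/Em430; ΔFRET vs ADEP 5.8 microM, DMSO, no enzyme.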
Nrf2 block: inhibitors of Nrf2 signaling. AID 504444. A549 ARE-Fluc reporter, luciferase luminescence, 18-24 h. Potency, µM (series often up to 46 µM), for the others: at the highest dose activity change, negative = inhibition, usual class: inhibitors. 2.1% of 360,000 active; note: potency is the fitted concentration of half-maximal effect; % is set by controls: 0 for no effect and ±100 for the full control effect; nearly all actives have a fitted effect of over 60% in size
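Nrf2 activity is the BugLite luminescence, read 15 min after reagent at room temperature, following CellTiter-Fluor cytotoxicity readout (30 min, 37C). Compound titrations were applied for 18-24 h to 5000 A549 ARE_Fluc cells/well in 5% FBS OPTI-MEM.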
Nrf2 activator: Nrf2 pathway activation | AREc32 ARE-luciferase reporter (MCF7-derived line), luminescence, 24 h | Potency, µM (top dose mostly 46.1 µM), without a hit: at the top dose activation, usual class: activators | 0.31% of 410,000 active; note: potency is the fitted concentration of half-maximal effect; % of control where 0% means no effect; nearly all actives have a fitted effect of over 65% in size
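Reporter line AREc32 (ARE-Fluc), seeded overnight in OPTI-MEM with 5% FBS; compound pin-transferred, 24 hr at 37 deg C, 5% CO2; luminescent read-out.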
TCR activator: activators of T cell receptors | 330,000 tested, under 10 active | Potency, µM (highest dose often 9.22 µM), for inactives: top-dose activation of IL-2 secretion, usual class: activators | primary human leukocytes, anti-CD3, IL-2 HTRF, 48 h; note: % of control where 0% means no effect
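Using a-CD3 beads without co-stimulation, primary human leukocytes were exposed to compounds for 48 hr. An HTRF IL-2 kit measured the cytokine, with europium-to-d2 energy transfer producing emission at 665nm upon 320nm excitation.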
A549 tox: A549 cytotoxicity, counter-screen for Nrf2 inhibitors; A549 ARE-Fluc cells, CellTiter-Fluor viability, 18-24 h; 0.16% of 390,000 active; Potency, µM (series often up to 46 µM), without a hit: at the top dose activity change, negative = cytotoxicity, usual class: inhibitors; note: potency is the fitted concentration of half-maximal effect; % is set by controls: 0 for no effect and ±100 for the full control effect
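A549 ARE-Fluc cells in 5% FBS OPTI-MEM, 5000 cells/well, rested 2 h then exposed to compounds in concentration-response for 18-24 h at 37 °C. Viability by CellTiter-Fluor fluorescence (Ex 405/Em 525) after 30 min; luciferase luminescence (BugLite, 15 min, RT) read afterwards.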
miR-21 reporter: raises the signal of a miR-21 reporter | HeLa miR-21 FLuc reporter, luciferase, 48 h | Potency, µM (doses to about 38.3 µM), for the others: at the highest dose reporter change, positive = more light | 340,000 tested, under 10 active | AID 2288; active = well fitted rising curve with a large enough effect; inconclusive = small, poorly fitted or top-dose-only effect; inactive = no such curve, though single readings can be large or run the other way;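 also: % of control where 0% means no effect; miR-21 action dims this reporter so a rising signal means less miR-21 action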
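HeLa cells stably expressing CMV-driven firefly luciferase with a downstream miR-21 binding sequence, endogenously expressing miR-21, were treated with titrations (up to about 40uM final) for 48 hours at 37 degree Celsius. Luciferase luminescence was read after lysis.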
* hit, by the source's call; ? = inconclusive; · = not tested or not shown; [ ] = another dose, or the depositor's remark. Unless noted, calls come from the whole dose curve; as a rule, active = well fitted curve in the direction sought with a large enough effect; inconclusive = small, poorly fitted or top-dose-only effect, or another doubt; inactive = no such curve, though single readings can be large; an effect the other way counts as inactive or inconclusive.

Molecule	ClpP mod	Nrf2 block	Nrf2 activator	TCR activator	A549 tox	miR-21 reporter
COc1ccc(OC)c(-c2c3cc(O)c(=O)cc-3oc3cc(O)c(O)cc23)c1	1%	-54%	3%	5%[46.1 µM]	21µM*	22%
COc1ccc(OC)c(-c2oc3ccccc3c(=O)c2O)c1	2%	-9%	6%	-5%	-6%	-28%
O=c1cc2oc3cc(O)c(O)cc3c(-c3ccccc3O)c-2cc1O	0%	?	?	2%	-18%	14%
CCOc1ccccc1-c1c2cc(O)c(=O)cc-2oc2cc(O)c(O)cc12	-2%	?	-1%	6%[46.1 µM]	18µM*	7%
CC1(C(=O)NS(=O)(=O)c2ccc(Cl)cc2)CCN1C(=O)c1ccc(C2CCCCC2)cc1 (configuration not stated)	-1%	·	-1%	·	·	·
Cn1c2ccccc2n2c(=O)c(Cl)c(-c3ccccc3)c(C#N)c12	28µM*	6%	4%	-10%[46.1 µM]	-14%	-7%
CC(=O)Nc1cc(-c2ccc(C(=O)N3CCOCC3)cc2)cn2c(-c3ccccc3)cnc12	25µM*	·	5%	·	·	·
CC(=O)Nc1cc(-c2ccc(C(=O)N3CCOCC3)cc2)cn2c(-c3ccc(C(C)=O)cc3)cnc12	-27%	·	3%	·	·	·
CCN(CC)CCCNc1oc(/C=C/c2ccc(OC)c(OC)c2)nc1C#N	4%	29%	1%	·	-1%	-1%
Cc1ccc2nc(-c3ccsc3)c(Nc3ccccc3C)n2c1	4%	?	1%	·	-7%	0%
CSc1ccc(-c2nc3ccc(C)cn3c2Nc2ccccc2C)cc1	3.5µM*	20%	2%	·	8%	-32%
CNc1ccccc1C(=O)OCC(=O)N(CCOC)c1c(N)n(CC(C)C)c(=O)[nH]c1=O	22µM*	12%	-1%	-1%	-2%	·
COCCN(C(=O)COC(=O)c1ccccc1Cc1ccccc1)c1c(N)n(Cc2ccccc2)c(=O)[nH]c1=O	-1%	-4%	0%	-1%	0%	·
COCCN(C(=O)COC(=O)/C=C/c1ccc(OC)c(OC)c1)c1c(N)n(Cc2ccccc2)c(=O)[nH]c1=O	?	-1%	0%	-2%	0%	·
COCCN(C(=O)COC(=O)/C=C/c1cccc(OC)c1)c1c(N)n(CC(C)C)c(=O)[nH]c1=O	32µM*	16%	15%	2%	-2%	·
CC1CCN(c2ccc(NC(=O)C3CCCN3S(=O)(=O)c3ccc(F)cc3)cc2)CC1 (configuration not stated)	-1%	1%	0%	0%	0%	·
CC(C)CN(C(=O)c1ccc(F)cc1F)c1c(N)n(CC(C)C)c(=O)[nH]c1=O	·	11%	0%	-3%	-4%	1%
O=C(NC1CCCCNC1=O)c1ccc(Cl)cc1 (configuration not stated)	28µM*	·	0%	-5%	-1%	-14%
CCOc1ccc(-c2c(C)nn3c(C)c(C(=O)NCC(C)c4ccccc4)cnc23)cc1OCC (configuration not stated)	-10%	?	1%	·	-6%	28%
Cc1cc(C)n(Cc2ccc(C(=O)Nc3ccc(Br)cc3C)o2)n1	-2%	-10%	0%	1%[46.1 µM]	1%	-7%
Cc1cc(C)n(Cc2ccc(C(=O)Nc3cccc(Br)c3)o2)n1	-4%	23µM*	0%	5%[46.1 µM]	?	-12%
Cn1nnnc1Sc1ncnc2scc(I)c12	·	-23%	·	·	?	·
COc1cc(SC)ccc1C(=O)Nc1nc2ccccc2[nH]1	4%	1.6µM*	-2%	5%	-12%	?
Cc1cc(Nc2sc(C(=O)c3ccc(F)cc3)c(N)c2C(=O)Nc2ccc(F)cc2)ccc1Cl	-1%	·	-2%	·	16µM*	?

A draw from above in order of count of non-hydrogen atoms, low to high:
Molecule	ClpP mod	Nrf2 block	Nrf2 activator	TCR activator	A549 tox	miR-21 reporter
Cn1nnnc1Sc1ncnc2scc(I)c12	·	-23%	·	·	?	·
COc1cc(SC)ccc1C(=O)Nc1nc2ccccc2[nH]1	4%	1.6µM*	-2%	5%	-12%	?
Cc1cc(Nc2sc(C(=O)c3ccc(F)cc3)c(N)c2C(=O)Nc2ccc(F)cc2)ccc1Cl	-1%	·	-2%	·	16µM*	?

In another format: entries from further up.
Screens in order: ClpP mod	Nrf2 block	Nrf2 activator	TCR activator	A549 tox	miR-21 reporter
> CC(C)CN(C(=O)c1ccc(F)cc1F)c1c(N)n(CC(C)C)c(=O)[nH]c1=O
    ·	11%	0%	-3%	-4%	1%
> CC(=O)Nc1cc(-c2ccc(C(=O)N3CCOCC3)cc2)cn2c(-c3ccccc3)cnc12
    25µM*	·	5%	·	·	·

Next structures.
Molecule	ClpP mod	Nrf2 block	Nrf2 activator	TCR activator	A549 tox	miR-21 reporter
COc1ccc(NC(=O)c2c(Nc3ccccc3)sc(C(=O)c3ccc(F)cc3)c2N)cc1	1%	?	10%	2%	-17%	15%
COc1ccc(C(=O)c2sc(Nc3cccc(OC)c3)c(C(=O)Nc3cccc(C)c3C)c2N)cc1	-5%	23µM*	7%	-21%	?	-2%
O=c1c2cccnc2n(Cc2ccc(Cl)cc2)c(=O)n1Cc1ccc(F)cc1	-10%	4%	0%	·	3%	-4%
Cc1ccccc1Cn1c(=O)n(Cc2ccc(Cl)cc2)c(=O)c2cccnc21	25µM*	1%	0%	·	11%	0%
O=C(c1cccn2c(=O)c3cc(Cl)ccc3nc12)N1CCOCC1	18µM*	7%	-1%	·	?	-9%
O=C(c1ccc2nc3ccc(Cl)cc3c(=O)n2c1)N1CCOCC1	16µM*	6%	0%	·	2%	-3%
CNc1cccc(S(=O)(=O)N2CCCN(S(=O)(=O)c3ccc4c(c3)OCCO4)CC2)c1	·	-7%	·	·	-3%	·
Cc1cc2c(s1)c1cnn(Cc3ccc(S(C)(=O)=O)cc3)c(=O)c1n2C	·	21µM*	·	·	-14%	·
CCN1c2ccccc2NC2N=C(OC)C(c3ccccc3)C21 (configuration not stated)	-3%	?	0%	·	21µM*	23%
CCC(Sc1ncnc2c1c(-c1ccccc1)cn2-c1ccc(OC)cc1)C(=O)OC (configuration not stated)	32µM*	-20%	-1%	-1%[46.1 µM]	4%	-6%
COC(=O)C(C)Sc1ncnc2c1c(-c1ccccc1)cn2-c1ccc(OC)cc1 (configuration not stated)	?	10%	0%	3%[46.1 µM]	-2%	-14%
CCOC(=O)C(C)Sc1ncnc2c1c(-c1ccccc1)cn2-c1ccc(OC)cc1 (configuration not stated)	25µM*	-27%	0%	1%[46.1 µM]	0%	-13%
COC(=O)Nc1cccn(Cc2c(Cl)cccc2Cl)c1=O	?	-7%	-1%	-2%	-6%	-34%
C#CCOC(=O)Nc1ccc(=O)n(Cc2c(Cl)cccc2Cl)c1	28µM*	-12%	0%	-1%	0%	-6%
COC(=O)c1ccc(NC(=O)c2ccc3c(c2)C(=O)N(C)C3=O)cc1	11µM*	3%	0%	-25%	7%	3%
COC(=O)c1ccc(NC(=O)c2ccc3c(c2)C(=O)N(Cc2cccnc2)C3=O)cc1	1%	2%	0%	0%	2%	1%
CN(C)c1ccc(/C=C/c2ccnc3c(-c4ccccc4)cccc23)cc1	2%	·	·	·	·	·
